Calls of active or inactive are those of the source. The calls are words filed in the database; no cut-off is given here.
How the values were obtained:
[1] = biological target: T1, Aurora kinase A (Homo sapiens) (UniProt O14965); experiment: Inhibition of human AurA at 1 uM by Eurofins Discovery screening relative to control
T1 sequence (whole entry): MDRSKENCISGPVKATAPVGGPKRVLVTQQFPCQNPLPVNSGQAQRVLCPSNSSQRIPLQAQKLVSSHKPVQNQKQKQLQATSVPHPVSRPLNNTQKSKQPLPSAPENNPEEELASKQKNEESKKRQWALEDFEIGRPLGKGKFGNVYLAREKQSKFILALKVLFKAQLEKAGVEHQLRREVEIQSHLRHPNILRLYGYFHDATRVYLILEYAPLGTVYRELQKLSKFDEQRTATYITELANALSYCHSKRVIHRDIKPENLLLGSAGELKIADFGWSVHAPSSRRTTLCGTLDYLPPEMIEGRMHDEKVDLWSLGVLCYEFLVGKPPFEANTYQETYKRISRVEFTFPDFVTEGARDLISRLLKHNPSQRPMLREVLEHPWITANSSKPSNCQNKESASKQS

The chains behind the UniProt entries cited, without tags or fusion partners. Where a name states a change or a piece, a line headed by the entry shows the natural chain unless it says otherwise.
UniProt Q00534, whole entry: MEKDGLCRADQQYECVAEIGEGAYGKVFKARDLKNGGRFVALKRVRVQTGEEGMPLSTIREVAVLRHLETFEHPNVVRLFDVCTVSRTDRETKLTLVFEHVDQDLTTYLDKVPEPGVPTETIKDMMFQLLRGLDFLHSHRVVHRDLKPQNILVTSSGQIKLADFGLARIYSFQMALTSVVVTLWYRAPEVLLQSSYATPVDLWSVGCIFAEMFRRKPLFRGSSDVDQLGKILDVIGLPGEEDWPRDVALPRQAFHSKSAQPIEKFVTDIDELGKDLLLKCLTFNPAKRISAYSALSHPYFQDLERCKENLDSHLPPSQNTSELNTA
UniProt Q08345: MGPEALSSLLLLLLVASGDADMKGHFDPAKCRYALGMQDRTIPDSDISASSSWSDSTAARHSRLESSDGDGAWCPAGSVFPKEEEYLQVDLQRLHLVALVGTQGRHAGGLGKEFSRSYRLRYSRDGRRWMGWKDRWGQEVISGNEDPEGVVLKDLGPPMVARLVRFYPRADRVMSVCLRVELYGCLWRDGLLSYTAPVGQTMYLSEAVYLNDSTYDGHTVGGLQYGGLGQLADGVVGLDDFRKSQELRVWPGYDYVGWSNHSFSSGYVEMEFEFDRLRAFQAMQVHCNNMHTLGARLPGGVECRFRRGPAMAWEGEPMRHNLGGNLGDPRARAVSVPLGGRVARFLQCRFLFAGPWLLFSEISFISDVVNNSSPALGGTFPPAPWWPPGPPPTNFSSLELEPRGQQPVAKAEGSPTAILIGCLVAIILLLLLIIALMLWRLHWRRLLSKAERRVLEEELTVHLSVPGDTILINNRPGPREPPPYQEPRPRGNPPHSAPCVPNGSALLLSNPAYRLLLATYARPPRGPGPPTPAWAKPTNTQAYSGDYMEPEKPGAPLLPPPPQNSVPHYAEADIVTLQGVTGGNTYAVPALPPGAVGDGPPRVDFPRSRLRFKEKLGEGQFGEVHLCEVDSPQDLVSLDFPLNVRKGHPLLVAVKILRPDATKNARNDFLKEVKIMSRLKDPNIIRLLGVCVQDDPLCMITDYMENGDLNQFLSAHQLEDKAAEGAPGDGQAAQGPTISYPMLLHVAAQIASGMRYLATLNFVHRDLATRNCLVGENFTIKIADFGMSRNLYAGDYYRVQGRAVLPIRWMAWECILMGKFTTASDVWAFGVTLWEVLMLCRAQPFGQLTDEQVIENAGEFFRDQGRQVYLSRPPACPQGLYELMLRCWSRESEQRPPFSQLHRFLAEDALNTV
UniProt P45983: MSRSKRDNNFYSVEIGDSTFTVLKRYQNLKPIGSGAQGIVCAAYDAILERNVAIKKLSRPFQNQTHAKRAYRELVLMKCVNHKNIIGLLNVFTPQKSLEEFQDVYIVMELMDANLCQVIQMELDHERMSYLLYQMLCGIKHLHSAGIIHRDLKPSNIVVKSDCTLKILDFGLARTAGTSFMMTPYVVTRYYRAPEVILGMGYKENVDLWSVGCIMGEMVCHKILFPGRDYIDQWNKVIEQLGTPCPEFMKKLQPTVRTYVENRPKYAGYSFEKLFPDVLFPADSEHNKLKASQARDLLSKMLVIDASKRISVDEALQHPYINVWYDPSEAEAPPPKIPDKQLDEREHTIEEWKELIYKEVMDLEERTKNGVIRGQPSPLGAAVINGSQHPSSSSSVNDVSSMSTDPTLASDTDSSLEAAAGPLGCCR
UniProt P29376: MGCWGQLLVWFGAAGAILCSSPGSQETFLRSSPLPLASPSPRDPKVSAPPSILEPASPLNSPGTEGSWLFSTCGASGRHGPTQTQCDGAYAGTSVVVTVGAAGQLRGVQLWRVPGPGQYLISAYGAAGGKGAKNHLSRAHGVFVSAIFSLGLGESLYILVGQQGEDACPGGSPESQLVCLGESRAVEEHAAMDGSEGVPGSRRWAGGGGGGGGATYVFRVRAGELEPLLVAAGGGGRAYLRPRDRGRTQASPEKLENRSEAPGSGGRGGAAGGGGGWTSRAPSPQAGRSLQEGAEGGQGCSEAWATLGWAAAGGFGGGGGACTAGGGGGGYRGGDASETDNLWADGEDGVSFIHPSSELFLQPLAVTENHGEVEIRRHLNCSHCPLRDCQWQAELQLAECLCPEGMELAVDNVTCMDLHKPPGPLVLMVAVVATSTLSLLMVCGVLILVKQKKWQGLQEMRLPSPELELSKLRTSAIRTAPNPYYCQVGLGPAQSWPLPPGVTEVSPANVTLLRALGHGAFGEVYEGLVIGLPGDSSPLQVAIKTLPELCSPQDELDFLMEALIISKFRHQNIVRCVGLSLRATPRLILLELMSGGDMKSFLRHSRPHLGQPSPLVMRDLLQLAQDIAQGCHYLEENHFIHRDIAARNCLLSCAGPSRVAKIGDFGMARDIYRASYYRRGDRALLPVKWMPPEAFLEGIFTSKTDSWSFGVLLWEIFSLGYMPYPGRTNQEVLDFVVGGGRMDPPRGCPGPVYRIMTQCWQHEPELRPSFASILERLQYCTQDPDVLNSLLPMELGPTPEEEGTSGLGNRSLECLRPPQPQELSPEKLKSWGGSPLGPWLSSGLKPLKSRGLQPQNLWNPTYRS
UniProt Q16584: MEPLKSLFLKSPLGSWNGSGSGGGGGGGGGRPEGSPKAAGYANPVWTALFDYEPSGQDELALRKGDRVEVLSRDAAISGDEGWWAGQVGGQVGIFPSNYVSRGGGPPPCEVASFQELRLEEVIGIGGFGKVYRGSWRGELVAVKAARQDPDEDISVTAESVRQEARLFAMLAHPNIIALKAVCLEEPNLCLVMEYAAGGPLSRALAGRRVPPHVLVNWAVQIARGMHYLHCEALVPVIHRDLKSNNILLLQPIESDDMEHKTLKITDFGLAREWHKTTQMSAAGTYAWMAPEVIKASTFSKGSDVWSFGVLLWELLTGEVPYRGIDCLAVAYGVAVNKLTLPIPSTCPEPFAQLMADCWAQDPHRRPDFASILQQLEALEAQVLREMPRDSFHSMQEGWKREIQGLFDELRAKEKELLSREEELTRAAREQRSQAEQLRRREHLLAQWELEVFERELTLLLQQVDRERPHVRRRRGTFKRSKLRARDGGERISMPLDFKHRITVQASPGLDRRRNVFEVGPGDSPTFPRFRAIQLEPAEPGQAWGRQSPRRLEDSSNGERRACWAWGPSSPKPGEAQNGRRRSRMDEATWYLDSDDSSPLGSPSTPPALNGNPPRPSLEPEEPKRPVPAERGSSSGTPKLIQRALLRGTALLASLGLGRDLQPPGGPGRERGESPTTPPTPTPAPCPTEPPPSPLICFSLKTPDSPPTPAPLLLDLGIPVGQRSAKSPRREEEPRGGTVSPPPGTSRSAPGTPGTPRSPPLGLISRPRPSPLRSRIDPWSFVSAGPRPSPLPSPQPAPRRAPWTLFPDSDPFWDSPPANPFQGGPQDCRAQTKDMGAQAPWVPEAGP
UniProt O75116: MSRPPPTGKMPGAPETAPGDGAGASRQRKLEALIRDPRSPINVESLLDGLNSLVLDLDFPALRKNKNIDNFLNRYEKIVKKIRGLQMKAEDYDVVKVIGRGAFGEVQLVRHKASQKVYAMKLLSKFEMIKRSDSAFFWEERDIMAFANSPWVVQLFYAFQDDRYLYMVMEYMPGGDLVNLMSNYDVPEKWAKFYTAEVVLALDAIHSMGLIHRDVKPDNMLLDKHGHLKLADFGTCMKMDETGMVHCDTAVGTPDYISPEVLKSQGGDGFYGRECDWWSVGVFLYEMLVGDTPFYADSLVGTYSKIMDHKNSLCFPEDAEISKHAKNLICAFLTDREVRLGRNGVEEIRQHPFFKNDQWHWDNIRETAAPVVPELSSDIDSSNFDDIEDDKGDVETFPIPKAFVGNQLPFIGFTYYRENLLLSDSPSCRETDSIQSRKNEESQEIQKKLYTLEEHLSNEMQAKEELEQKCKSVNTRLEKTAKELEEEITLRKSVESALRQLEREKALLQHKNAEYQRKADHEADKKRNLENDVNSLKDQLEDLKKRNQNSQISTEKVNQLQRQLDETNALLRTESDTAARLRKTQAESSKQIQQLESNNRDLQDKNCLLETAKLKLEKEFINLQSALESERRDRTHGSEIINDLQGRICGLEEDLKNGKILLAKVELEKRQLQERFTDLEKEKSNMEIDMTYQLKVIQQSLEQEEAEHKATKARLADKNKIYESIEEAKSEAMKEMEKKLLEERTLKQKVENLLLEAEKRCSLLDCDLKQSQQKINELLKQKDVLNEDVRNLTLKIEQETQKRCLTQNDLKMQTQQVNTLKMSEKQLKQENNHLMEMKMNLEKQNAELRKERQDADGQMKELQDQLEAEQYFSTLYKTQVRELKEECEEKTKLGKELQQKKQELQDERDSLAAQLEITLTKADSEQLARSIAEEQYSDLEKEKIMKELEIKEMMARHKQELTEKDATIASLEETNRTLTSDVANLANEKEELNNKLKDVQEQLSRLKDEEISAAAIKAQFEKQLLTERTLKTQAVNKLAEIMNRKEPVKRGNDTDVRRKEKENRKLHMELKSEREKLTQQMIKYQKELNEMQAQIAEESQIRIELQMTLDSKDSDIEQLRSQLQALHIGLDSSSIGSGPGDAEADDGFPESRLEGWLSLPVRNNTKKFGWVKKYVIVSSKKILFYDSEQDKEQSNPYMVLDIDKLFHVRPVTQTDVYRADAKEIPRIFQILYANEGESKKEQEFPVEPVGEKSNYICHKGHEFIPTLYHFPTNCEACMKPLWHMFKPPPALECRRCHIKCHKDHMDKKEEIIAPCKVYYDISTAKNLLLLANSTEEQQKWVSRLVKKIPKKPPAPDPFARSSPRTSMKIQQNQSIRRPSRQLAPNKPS
UniProt P37173, whole entry: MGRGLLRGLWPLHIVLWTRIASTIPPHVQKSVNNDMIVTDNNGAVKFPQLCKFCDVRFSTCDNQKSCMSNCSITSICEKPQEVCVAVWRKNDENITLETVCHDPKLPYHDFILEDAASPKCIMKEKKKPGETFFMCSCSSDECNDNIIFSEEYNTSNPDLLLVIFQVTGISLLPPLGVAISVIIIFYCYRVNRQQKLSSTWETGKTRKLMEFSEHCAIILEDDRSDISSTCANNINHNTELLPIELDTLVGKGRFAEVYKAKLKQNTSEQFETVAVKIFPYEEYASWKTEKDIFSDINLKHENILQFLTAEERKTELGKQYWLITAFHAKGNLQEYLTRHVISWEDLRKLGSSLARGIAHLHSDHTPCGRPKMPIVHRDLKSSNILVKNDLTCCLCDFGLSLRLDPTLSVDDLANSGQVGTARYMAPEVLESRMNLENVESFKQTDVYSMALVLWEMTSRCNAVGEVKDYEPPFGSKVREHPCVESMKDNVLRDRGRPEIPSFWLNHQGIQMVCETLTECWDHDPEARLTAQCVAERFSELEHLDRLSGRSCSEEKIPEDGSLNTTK
UniProt Q86Y07: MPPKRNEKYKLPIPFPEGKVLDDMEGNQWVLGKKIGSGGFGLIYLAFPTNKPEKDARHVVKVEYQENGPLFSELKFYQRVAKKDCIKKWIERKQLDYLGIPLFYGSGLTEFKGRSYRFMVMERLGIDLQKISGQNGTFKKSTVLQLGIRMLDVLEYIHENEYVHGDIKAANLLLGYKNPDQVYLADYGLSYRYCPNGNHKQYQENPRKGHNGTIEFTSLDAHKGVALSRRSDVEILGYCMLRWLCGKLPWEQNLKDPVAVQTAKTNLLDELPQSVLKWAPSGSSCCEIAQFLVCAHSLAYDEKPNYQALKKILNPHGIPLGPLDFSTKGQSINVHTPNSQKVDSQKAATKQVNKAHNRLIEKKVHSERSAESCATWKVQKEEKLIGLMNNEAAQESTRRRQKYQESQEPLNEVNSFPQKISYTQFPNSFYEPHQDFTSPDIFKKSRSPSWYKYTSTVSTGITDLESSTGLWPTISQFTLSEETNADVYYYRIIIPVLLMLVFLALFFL
UniProt P31749: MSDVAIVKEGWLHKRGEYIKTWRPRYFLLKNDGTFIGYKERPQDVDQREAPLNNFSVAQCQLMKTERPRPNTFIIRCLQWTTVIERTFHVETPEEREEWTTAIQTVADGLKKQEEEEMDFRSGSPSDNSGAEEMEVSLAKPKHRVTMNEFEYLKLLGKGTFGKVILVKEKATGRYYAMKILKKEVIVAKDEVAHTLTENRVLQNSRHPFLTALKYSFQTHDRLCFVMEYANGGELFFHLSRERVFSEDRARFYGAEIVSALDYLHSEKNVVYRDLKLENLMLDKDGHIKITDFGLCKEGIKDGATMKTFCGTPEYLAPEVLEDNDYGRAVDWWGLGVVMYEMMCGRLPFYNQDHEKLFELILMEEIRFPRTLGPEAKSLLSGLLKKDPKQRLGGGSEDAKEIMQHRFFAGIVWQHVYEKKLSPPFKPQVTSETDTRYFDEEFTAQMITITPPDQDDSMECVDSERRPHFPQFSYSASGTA

[2] = biological target: Tyrosine-protein kinase Blk (Homo sapiens) (UniProt P51451); experiment: Inhibition of human BLK at 1 uM by Eurofins Discovery screening relative to control
[3] = biological target: Cyclin-dependent kinase 3 (Homo sapiens) (UniProt Q00526); experiment: Inhibition of human CDK3 at 1 uM by Eurofins Discovery screening relative to control
[4] = biological target: Cyclin-dependent kinase 6 (Homo sapiens) (UniProt Q00534); experiment: Inhibition of human CDK6 at 1 uM by Eurofins Discovery screening relative to control
[5] = biological target: Death-associated protein kinase 2 (Homo sapiens) (UniProt Q9UIK4); experiment: Inhibition of human DAPK2 at 1 uM by Eurofins Discovery screening relative to control
[6] = biological target: RAF proto-oncogene serine/threonine-protein kinase (Homo sapiens) (UniProt P04049); experiment: Inhibition of human RAF1 at 1 uM by Eurofins Discovery screening relative to control
[7] = biological target: Epithelial discoidin domain-containing receptor 1 (Homo sapiens) (UniProt Q08345); experiment: Inhibition of human DDR1 at 1 uM by Eurofins Discovery screening relative to control
[8] = biological target: Mitogen-activated protein kinase 8 (Homo sapiens) (UniProt P45983); experiment: Inhibition of human JNK1 at 1 uM by Eurofins Discovery screening relative to control
[9] = biological target: Leukocyte tyrosine kinase receptor (Homo sapiens) (UniProt P29376); experiment: Inhibition of human LTK at 1 uM by Eurofins Discovery screening relative to control
[10] = biological target: Mitogen-activated protein kinase kinase kinase 11 (Homo sapiens) (UniProt Q16584); experiment: Inhibition of human MLK3 at 1 uM by Eurofins Discovery screening relative to control
[11] = biological target: MAP kinase-interacting serine/threonine-protein kinase 1 (Homo sapiens) (UniProt Q9BUB5); experiment: Inhibition of human MNK1 at 1 uM by Eurofins Discovery screening relative to control
[12] = biological target: MAP kinase-interacting serine/threonine-protein kinase 2 (Homo sapiens) (UniProt Q9HBH9); experiment: Inhibition of human MNK2 at 1 uM by Eurofins Discovery screening relative to control
[13] = biological target: [Pyruvate dehydrogenase (acetyl-transferring)] kinase isozyme 2, mitochondrial (Homo sapiens) (UniProt Q15119); experiment: Inhibition of human PDK2 at 1 uM by Eurofins Discovery screening relative to control
[14] = biological target: Rho-associated protein kinase 2 (Homo sapiens) (UniProt O75116); experiment: Inhibition of human ROCK2 at 1 uM by Eurofins Discovery screening relative to control
[15] = biological target: Tyrosine-protein kinase SYK (Homo sapiens) (UniProt P43405); experiment: Inhibition of human SYK at 1 uM by Eurofins Discovery screening relative to control
[16] = biological target: TGF-beta receptor type-2 (Homo sapiens) (UniProt P37173); experiment: Inhibition of human TGFbetaR2 at 1 uM by Eurofins Discovery screening relative to control
[17] = biological target: Serine/threonine-protein kinase VRK2 (Homo sapiens) (UniProt Q86Y07); experiment: Inhibition of human VRK2 at 1 uM by Eurofins Discovery screening relative to control
[18] = biological target: RAC-alpha serine/threonine-protein kinase (Homo sapiens) (UniProt P31749); experiment: Inhibition of AKT activation in human NCI-H1975 cells assessed as reduction in AKT phosphorylation at 10 uM measured after 24 hrs by Western blot analysis; type: cell-based
[19] = biological target: RAC-alpha serine/threonine-protein kinase (Homo sapiens) (UniProt P31749); experiment: Inhibition of AKT activation in human A549 cells assessed as reduction in AKT phosphorylation at 10 uM measured after 24 hrs by Western blot analysis; type: cell-based
[20] = biological target: RAC-alpha serine/threonine-protein kinase (Homo sapiens) (UniProt P31749); experiment: Inhibition of AKT activation in human MDA-MB-231 cells assessed as reduction in AKT phosphorylation at 10 uM measured after 24 hrs by Western blot analysis; type: cell-based

inhibition [1]: 17%
inhibition [2]: 15%
inhibition [3]: 12%
inhibition [4]: 15%
inhibition [6]: 24%
inhibition [7]: 25%
inhibition [8]: 14%
inhibition [9]: 15%
inhibition [10]: 19%
inhibition [11]: 20%
inhibition [12]: 23%
inhibition [13]: 12%
inhibition [14]: 26%
inhibition [15]: 16%
inhibition [16]: 17%
inhibition [17]: 15%
inhibition [18]: Active
inhibition [19]: Active
inhibition [20]: Active
Compound: COCOc1ccc(-c2cn(C)c3cc(NC(=O)c4ccc(C)c(C#Cc5ccnc6[nH]ncc56)c4)ccc23)cc1
inhibition [5]: 15%

From ChEMBL document CHEMBL5500413, “Discovery of Novel Receptor Tyrosine Kinase-like Orphan Receptor 1 (ROR1) Inhibitors for Cancer Treatment” (J Med Chem, 2024)
